Laboratory results taken from patent publication US20250197476A1.

Target: Fc gamma receptors of NK cells
Test: cytofluorometry, NK cells, 10 µg/ml, 30 min at 37 °C

“FcWT-N3-DBCO-A647 (from UniProt P01857 104-330)” showed an MFI of 1110.
